Test results from patent publication US20190002511A1.

Molecular target: human α-thrombin (recombinant) (human) (UniProt P00734)
Test: cell-based or functional assay

IC50, inhibition of thrombin amidolytic activity: 118 nM
Substance: β-variegin (peptide)
